{
  "source": "patent US5135937A",
  "about": "“Cycloalkylene azoles and pharmaceutical preparations obtained therefrom” (Schering Aktiengesellschaft, priority 1989, dated 1992)",
  "origin": "cited, not measured here",
  "tested_on": "aromatase",
  "conditions": "Cancer Res., 48: 834-838, 1988; cited from earlier work",
  "note": "Counter-ions that a name gives are not always drawn.",
  "data": [
    {"compound": "N#Cc1ccc(C2CCCc3cncn32)cc1", "note": "(racemic) [D, 5-(p-cyanophenyl)-5,6,7,8tetrahydroimidazo[-1,5a]pyridine, hydrochloride, reference compound]", "values": [
      {"measurement": "aromatase inhibitor (in words)", "result": "strongly effective aromatase inhibitor"}
    ]}
  ]
}
